Values quoted from earlier work in patent US20240116925A1, “SALT OF NITROGEN-CONTAINING FUSED HETEROCYCLIC COMPOUND OR CRYSTAL FORM THEREOF, AND PREPARATION METHOD THEREFOR, PHARMACEUTICAL COMPOSITION THEREOF, AND USE THEREOF” (SHANGHAI PHARMACEUTICALS HOLDING CO., LTD., priority 2021, published 2024).

What was measured:
[1] = mouse
[2] = rat

## Cc1nc2c(F)cc(-c3nc(Nc4ccc5c(n4)CCN(CCN(C)C)C5)ncc3F)cc2n1C1CC1 [Compound I, N-(4-(1-cyclopropyl-4-fluoro-2-methyl-1H-benzimidazol-6-yl)-5-fluoropyrimidin-2-yl)-6-(2-(dimethylamino)ethyl)-5,6,7,8-tetrahydro-1,6-naphthyridin-2-amine]
[1]
  in vivo absorption properties: good in vivo absorption properties
[2]
  in vivo absorption properties: good in vivo absorption properties
[2]; in vivo
  bioavailability: high bioavailability

Where two headings read alike, the source gives them in different places.
